pIC50: −log10 of the molar value.
Columns and labels:
[1] = biological target: human NK2 (hNK2) receptor (Homo sapiens (Human), UniProt P21452); test: Human NK2 receptor binding assay: radioligand ([125I]-NK-A) binding inhibition using membrane fraction of CHO cells expressing hNK2 receptor; conditions: read-out: hNK2 IC50, CHO cell membrane fraction
human NK1 receptor = human NK1 receptor (Homo sapiens (Human), UniProt P25103); test: Human NK1 receptor binding assay: radioligand (125I-Bolton-Hunter-SP) binding inhibition using receptor from human lymphoblast cells (IM-9); conditions: read-out: hNK1 IC50, IM-9 cell receptor

Chains of the proteins cited; added tags and fusions are not shown.
UniProt P21452, whole entry, looked up: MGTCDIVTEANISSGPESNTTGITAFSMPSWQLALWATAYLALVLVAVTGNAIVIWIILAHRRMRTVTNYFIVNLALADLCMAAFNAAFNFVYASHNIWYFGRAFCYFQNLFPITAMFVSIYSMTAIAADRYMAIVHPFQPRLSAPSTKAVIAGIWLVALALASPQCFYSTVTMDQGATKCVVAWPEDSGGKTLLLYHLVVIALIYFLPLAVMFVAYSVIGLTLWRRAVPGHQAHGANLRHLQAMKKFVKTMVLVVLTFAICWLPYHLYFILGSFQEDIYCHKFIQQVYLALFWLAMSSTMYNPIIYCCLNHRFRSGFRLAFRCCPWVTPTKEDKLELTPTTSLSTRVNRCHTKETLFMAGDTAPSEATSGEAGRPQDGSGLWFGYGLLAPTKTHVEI
UniProt P25103, whole entry, looked up: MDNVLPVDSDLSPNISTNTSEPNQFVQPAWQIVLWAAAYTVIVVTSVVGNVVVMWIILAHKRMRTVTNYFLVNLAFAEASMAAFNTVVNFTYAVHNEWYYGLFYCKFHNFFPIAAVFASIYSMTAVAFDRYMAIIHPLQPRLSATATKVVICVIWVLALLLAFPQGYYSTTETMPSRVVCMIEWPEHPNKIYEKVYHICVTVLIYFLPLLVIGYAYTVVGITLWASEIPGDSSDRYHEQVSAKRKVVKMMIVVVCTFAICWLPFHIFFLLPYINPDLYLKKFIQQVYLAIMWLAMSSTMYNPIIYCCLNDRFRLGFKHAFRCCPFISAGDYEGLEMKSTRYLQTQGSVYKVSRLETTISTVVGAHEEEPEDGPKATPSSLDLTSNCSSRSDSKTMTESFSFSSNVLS

CN(C(=O)c1ccc(Br)cc1)[C@@H]1CCN(C(=O)C2CCN(C(=O)CO)CC2)C[C@H]1c1ccc(Cl)c(Cl)c1.O (hydrate or solvate)
pIC50 [1]: 9.62 | pIC50 (human NK1 receptor): 7.08

CN(C(=O)c1ccc(C(F)(F)F)cc1)[C@@H]1CCN(C(=O)C2CCN(C(=O)CO)CC2)C[C@H]1c1ccc(Cl)c(Cl)c1.O (hydrate or solvate)
pIC50 (human NK1 receptor): 6.85

CN(C(=O)c1ccc(Cl)cc1)[C@@H]1CCN(C(=O)C2CCN(C(=O)CO)CC2)C[C@H]1c1ccc(Cl)c(Cl)c1.O (hydrate or solvate)
pIC50 (human NK1 receptor): 7.10

CC(=O)N1CCC(C(=O)N2CC[C@@H](N(C)C(=O)c3ccc(Br)cn3)[C@H](c3ccc(Cl)c(Cl)c3)C2)CC1
pIC50 [1]: 9.09 | pIC50 (human NK1 receptor): 6.28

— patent US8470816B2, “Nitrogen-containing heterocyclic compound and use thereof” (Takeda Pharmaceutical Company Limited, priority 2007, dated 2013)
